# In patent US20250122183A1 (Pfizer Inc., priority 2023, published 2025):
# Protein sequences, listed by entry. Tags and fused reporters are not part of them. Chains listed by the source or under a name are the forms on record and can include a tag or linker. Residues count along the entry.
# UniProt Q92794, 1-2004 with tags or gaps limits assumed: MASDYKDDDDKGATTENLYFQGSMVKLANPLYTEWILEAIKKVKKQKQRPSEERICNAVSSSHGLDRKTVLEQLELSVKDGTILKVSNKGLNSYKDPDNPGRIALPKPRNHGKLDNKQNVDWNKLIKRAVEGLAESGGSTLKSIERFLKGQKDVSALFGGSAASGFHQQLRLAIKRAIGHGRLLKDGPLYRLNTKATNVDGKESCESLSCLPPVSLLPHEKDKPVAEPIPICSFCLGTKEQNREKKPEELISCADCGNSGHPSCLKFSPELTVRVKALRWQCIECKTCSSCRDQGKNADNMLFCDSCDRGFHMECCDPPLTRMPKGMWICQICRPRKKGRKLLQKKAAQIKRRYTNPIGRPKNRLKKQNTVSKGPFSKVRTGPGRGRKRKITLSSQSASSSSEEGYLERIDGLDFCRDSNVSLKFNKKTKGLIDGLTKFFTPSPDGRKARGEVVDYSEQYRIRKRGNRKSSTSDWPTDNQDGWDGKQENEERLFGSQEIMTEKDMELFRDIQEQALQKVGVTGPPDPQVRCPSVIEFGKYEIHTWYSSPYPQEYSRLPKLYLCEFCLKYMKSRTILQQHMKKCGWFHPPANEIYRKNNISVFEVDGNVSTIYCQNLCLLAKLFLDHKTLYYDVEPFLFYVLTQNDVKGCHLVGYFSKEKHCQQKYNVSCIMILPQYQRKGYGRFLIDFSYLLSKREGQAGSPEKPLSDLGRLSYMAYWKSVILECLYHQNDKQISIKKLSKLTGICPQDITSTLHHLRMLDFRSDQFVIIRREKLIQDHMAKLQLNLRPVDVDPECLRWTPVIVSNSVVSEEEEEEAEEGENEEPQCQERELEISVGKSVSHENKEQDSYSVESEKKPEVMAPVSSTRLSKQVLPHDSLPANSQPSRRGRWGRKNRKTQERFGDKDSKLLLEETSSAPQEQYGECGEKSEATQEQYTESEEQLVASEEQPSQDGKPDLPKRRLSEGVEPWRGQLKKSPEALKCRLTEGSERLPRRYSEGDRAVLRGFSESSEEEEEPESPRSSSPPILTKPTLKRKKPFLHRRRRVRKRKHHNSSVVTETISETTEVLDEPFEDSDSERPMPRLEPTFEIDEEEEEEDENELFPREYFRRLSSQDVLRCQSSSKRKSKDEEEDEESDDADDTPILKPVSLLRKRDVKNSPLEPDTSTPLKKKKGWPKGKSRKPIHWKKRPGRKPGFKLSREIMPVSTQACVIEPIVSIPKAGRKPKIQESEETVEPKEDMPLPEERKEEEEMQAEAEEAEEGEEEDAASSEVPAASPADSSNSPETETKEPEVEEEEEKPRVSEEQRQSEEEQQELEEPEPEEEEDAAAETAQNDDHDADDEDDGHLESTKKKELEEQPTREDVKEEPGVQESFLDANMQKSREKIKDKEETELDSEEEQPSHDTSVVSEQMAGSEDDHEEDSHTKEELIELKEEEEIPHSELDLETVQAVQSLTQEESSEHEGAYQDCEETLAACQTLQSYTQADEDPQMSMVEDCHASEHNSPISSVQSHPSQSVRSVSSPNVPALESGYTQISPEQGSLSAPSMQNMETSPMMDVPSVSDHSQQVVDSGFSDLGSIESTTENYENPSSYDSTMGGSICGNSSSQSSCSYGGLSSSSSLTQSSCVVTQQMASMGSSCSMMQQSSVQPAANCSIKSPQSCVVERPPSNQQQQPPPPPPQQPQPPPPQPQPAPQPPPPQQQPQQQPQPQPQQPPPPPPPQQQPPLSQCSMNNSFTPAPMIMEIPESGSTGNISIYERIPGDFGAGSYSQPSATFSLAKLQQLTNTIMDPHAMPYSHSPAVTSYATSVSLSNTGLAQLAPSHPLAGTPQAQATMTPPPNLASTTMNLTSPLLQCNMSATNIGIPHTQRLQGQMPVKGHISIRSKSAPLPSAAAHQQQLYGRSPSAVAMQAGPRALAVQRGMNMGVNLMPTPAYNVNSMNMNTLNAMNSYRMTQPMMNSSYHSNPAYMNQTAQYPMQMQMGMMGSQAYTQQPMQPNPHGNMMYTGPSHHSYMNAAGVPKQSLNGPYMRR
# UniProt O95251, whole entry: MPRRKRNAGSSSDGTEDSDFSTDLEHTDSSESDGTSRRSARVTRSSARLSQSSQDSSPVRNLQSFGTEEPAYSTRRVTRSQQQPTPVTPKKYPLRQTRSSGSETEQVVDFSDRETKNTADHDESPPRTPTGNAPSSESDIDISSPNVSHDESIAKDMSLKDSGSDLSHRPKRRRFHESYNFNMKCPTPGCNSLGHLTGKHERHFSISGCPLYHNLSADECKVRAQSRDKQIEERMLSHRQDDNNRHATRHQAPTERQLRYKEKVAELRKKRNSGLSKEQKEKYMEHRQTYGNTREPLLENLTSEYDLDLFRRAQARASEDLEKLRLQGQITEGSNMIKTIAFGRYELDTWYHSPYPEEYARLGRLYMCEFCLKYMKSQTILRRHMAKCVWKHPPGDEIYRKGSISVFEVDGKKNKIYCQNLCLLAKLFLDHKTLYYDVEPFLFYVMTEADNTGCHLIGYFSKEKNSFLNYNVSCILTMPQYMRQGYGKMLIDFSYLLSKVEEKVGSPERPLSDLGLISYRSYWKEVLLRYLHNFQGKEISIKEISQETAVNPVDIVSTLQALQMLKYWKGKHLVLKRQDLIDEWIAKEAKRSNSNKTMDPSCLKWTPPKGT
# Columns and labels:
# [1] = target: KAT6A Full length enzyme (Homo sapiens (Human), UniProt Q92794); test: KAT6A assay (SAMDI-MS acetylation of H3 1-21 peptide); assay type: biochemical; conditions: read-out: KAT6A Ki (nM) (replicate number); Morrison equation fit; replicate number in parentheses
# [2] = target: KAT7+JADE1+EAF6+ING5 4 protein complex (Homo sapiens (Human), UniProt O95251); test: KAT7 JADE1 assay (SAMDI-MS acetylation of H3 1-21 peptide); assay type: biochemical; conditions: read-out: KAT7 JADE1 Ki (nM) (replicate number); Morrison equation fit; replicate number in parentheses
smiles,measurement,setting,value
"[2H]C([2H])([2H])N1CCC(F)(F)C(c2cc(OC)c(S(=O)(=O)Nc3noc4cc(Nc5cc(C6CC6)n[nH]5)c(OC)cc34)c(OC)c2)C1 (single isomer, unassigned)",Ki,[1],0.3 nM
same,Ki,[2],1.5 nM
